# Antibody variant affinities, Ab-14 heavy chain, assay B

The measurements come from Li et al. 2023 (doi:10.1038/s41467-023-39022-2) through the FLAb antibody collection.

All variants were tested on one target, the spike HR2 peptide PDVDLGDISGINAS (SARS-CoV-2).

The variants keep the light chain, the linker and the frameworks of Ab-14 (scFv order VH, a (GGGGS)3 linker, VL).
VH: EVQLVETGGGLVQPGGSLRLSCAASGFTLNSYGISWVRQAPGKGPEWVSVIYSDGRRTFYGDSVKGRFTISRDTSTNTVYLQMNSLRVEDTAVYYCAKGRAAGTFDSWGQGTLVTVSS
VL: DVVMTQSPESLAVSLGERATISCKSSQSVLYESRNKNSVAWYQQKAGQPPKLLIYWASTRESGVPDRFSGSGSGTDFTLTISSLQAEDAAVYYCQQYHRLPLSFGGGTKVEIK

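The parent was found by panning a naive human phage display library on the peptide. These sequences belong to a second round, designed from the earlier measurements on random variants of the parent. Their group label is 14H_GP_HC (GP: Gaussian process model; HC: hill climbing; a sequence that several methods proposed may carry one label only). The assay is AlphaSeq: two haploid yeast populations carry antibody and antigen on their surface. After mating in shaken culture at 30 °C for 16 h, diploids were selected and their barcode pairs sequenced. A regression on co-assayed BCL2-family reference pairs converts the normalised counts of each replicate to an apparent Kd. Mating was done six times.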

Substitutions are numbered in sequence along the VH above, starting at 1 (not Kabat).
Affinities are written as log10 Kd with Kd in nM; a lower number is a better binder.
A mean of the replicates is given; it leaves out those without a signal.
Where no diploid with the target was found in that replicate, the entry reads "n.d.": below detection, most likely a poor binder, though not proof of it.
Values of this round are not directly comparable with the first-round values of the same sequences.

changes,"log10 Kd, replicates","mean, log10 nM",signal with controls
T28Q+S31D+G61I+R100K,0.62 0.67 0.64 0.23 0.22 0.57,0.49,0/18
S53A+F105Y+D106K+S107I,n.d. n.d. n.d. n.d. n.d. n.d.,n.d.,0/18
S31E+G61D+A101E+S107M,0.14 0.02 0.02 -0.26 -0.18 0.05,-0.04,2/18 (2.51)
S31E+G61T+R100Q+S107L,0.66 0.38 0.78 1.15 0.73 0.69,0.73,0/18
S31D+G61A+R100K+D106I,n.d. n.d. n.d. n.d. n.d. n.d.,n.d.,0/18
T28G+S31D+F59H+G61I,0.79 0.18 0.71 0.40 0.98 0.71,0.63,0/18
G61D+R100Q+A101E+S107T,-0.25 0.29 -0.11 -0.04 -0.22 0.31,0.00,2/18 (2.25)
N30E+G61A+R100Q+A101G,n.d. n.d. 1.86 1.96 2.01 0.99,1.70,0/18
G61S+R100H+A101E,0.84 0.21 0.81 0.36 0.38 0.66,0.54,0/18
N30E+S53A+S63H+D106H,n.d. n.d. n.d. n.d. n.d. n.d.,n.d.,0/18
G61A+A101E+D106F,n.d. n.d. n.d. n.d. n.d. n.d.,n.d.,0/18
S31D+G61H+D106T,n.d. 2.42 n.d. n.d. n.d. n.d.,2.42,0/18
N30D+S53A+D106M,n.d. n.d. n.d. n.d. n.d. n.d.,n.d.,0/18
T28K+S31E+F59I+G61I,1.44 1.42 n.d. 2.16 1.87 2.81,1.94,0/18
F27C+T28S+S31E+G61T+A101F,n.d. n.d. 1.44 n.d. n.d. n.d.,1.44,0/18
T28Y+S31E+G61Q+A101F,n.d. 1.66 1.68 n.d. 1.60 n.d.,1.64,0/18
T28D+G61S+R100Q+A102V,n.d. n.d. 2.39 n.d. n.d. n.d.,2.39,1/18 (2.72)
S31E+G61K+A102V,n.d. n.d. n.d. n.d. n.d. n.d.,n.d.,0/18
T28L+S31D+G61K+A101Q,0.81 1.00 0.46 1.07 0.65 1.12,0.85,0/18
T28Q+R100H,n.d. n.d. n.d. n.d. n.d. n.d.,n.d.,0/18
T28F+S31D+R100S,0.98 0.72 0.72 1.28 0.87 1.14,0.95,1/18 (2.26)
S31E+G61S+R100Q+A101F,0.46 0.50 0.00 0.05 -0.16 0.23,0.18,0/18
N30E+S63D+D106T,n.d. 4.21 n.d. n.d. 2.07 n.d.,3.14,1/18 (2.02)
T28G+S31E+G61T+A101E,0.07 0.33 0.28 0.43 0.37 0.16,0.27,1/18 (2.11)
T28K+G61M+R100Q+A101T,n.d. n.d. n.d. n.d. 0.58 n.d.,0.58,0/18
T28D+G61A+R100Q+A102G,0.51 2.42 0.86 0.93 0.41 0.89,1.00,0/18
T28W+S31D+G61I+A101E,0.46 1.43 0.68 0.87 0.68 1.68,0.97,0/18
N30D+A101N+S107R,1.52 1.77 1.35 1.22 1.66 1.37,1.48,0/18
F27S+S31E+G61T+A101H,n.d. n.d. n.d. n.d. n.d. n.d.,n.d.,0/18
S31Q+R56W+G61S+D106T,n.d. 1.90 n.d. n.d. n.d. n.d.,1.90,1/18 (2.59)
S53A+S63D+D106K+S107M,n.d. n.d. n.d. n.d. n.d. n.d.,n.d.,0/18
F27Y+S31D+F59E+G61S,n.d. n.d. n.d. n.d. n.d. 3.19,3.19,2/18 (2.62)
T28P+G61Q+R100Q+A101L,n.d. 0.30 n.d. 0.89 n.d. 0.45,0.55,0/18
T28E+S31E+G61H+T104F,n.d. n.d. n.d. n.d. n.d. n.d.,n.d.,0/18
N30D+R100K+S107V,0.27 0.32 1.08 0.94 0.16 1.17,0.66,0/18
S31Q+G61S+R100K+A101D,0.64 0.88 0.66 0.52 0.72 0.76,0.70,0/18
T28K+G61A+R100Q+A101L,-1.14 -0.33 0.11 0.24 -0.55 -0.25,-0.32,0/18
F27Y+S31E+F59Q+G61S,n.d. 0.76 n.d. n.d. n.d. n.d.,0.76,0/18
T28L+G61D+R100Q+A101T,1.05 0.54 1.03 n.d. -0.19 0.53,0.59,0/18

The closing 5 entries, repeated:

changes,"log10 Kd, replicates","mean, log10 nM",signal with controls
N30D+R100K+S107V,0.27 0.32 1.08 0.94 0.16 1.17,0.66,0/18
S31Q+G61S+R100K+A101D,0.64 0.88 0.66 0.52 0.72 0.76,0.70,0/18
T28K+G61A+R100Q+A101L,-1.14 -0.33 0.11 0.24 -0.55 -0.25,-0.32,0/18
F27Y+S31E+F59Q+G61S,n.d. 0.76 n.d. n.d. n.d. n.d.,0.76,0/18
T28L+G61D+R100Q+A101T,1.05 0.54 1.03 n.d. -0.19 0.53,0.59,0/18

The authors' rule: three or more of the six replicates give a measured affinity, fewer mean a poor binder.
The parent sequence was in this pool as ten entries: three were never detected, three once, and four in most replicates, with averages from 0.34 to 2.37.
Empty control strains, which show no peptide, gave a signal in 1% of pairings with all heavy chain designs; the median was 2.08 and 95% of these signals were weaker than 0.84. No background was subtracted. For each scFv, signals with the empty controls are counted beside the result, with their mean in brackets.